In patent publication US8802861B2, “Thiazole derivatives and use thereof” (Merck Serono SA, priority 2004, dated 2014) one finds IC50 data, which are given here for one compound.

Protein sequences, listed by entry. Tags and fused reporters are not part of them. Lines headed by an entry give the natural chain unless they say otherwise; changes in a name come on top.
UniProt P48736: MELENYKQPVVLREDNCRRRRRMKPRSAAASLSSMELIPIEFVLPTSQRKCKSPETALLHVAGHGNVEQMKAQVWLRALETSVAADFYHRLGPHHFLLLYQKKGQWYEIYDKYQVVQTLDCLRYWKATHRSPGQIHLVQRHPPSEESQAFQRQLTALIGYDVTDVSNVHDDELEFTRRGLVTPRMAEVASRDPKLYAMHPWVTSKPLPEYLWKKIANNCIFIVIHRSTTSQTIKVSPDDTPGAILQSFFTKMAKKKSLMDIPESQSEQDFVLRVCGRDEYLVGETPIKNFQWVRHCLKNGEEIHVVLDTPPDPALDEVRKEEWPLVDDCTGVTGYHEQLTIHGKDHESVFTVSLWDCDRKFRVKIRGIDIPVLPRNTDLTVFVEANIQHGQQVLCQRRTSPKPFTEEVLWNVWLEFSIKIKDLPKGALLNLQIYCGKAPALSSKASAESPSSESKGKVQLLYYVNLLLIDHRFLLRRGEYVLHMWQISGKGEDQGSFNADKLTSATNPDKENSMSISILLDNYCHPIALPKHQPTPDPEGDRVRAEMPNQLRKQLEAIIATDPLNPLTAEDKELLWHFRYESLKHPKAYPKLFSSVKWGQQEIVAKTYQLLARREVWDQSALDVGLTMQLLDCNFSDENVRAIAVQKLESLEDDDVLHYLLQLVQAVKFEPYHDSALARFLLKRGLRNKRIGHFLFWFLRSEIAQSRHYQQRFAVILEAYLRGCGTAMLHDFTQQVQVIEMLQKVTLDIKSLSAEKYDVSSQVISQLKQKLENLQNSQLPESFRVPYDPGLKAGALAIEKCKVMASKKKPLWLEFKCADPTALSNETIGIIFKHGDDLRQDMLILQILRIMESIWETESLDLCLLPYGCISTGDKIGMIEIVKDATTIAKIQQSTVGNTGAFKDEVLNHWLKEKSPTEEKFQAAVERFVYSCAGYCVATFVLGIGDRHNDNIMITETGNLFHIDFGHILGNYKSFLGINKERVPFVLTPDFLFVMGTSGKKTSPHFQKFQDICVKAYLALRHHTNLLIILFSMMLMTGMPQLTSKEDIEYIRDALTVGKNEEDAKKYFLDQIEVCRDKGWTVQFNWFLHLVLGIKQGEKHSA

This assay has as its target PI3Kγ (Homo sapiens (Human), UniProt P48736). Kind of assay: High Throughput PI3K Lipid Kinase Assay (scintillation proximity assay). Particulars: Human recombinant GST-PI3Kγ, SPA. The format is biochemical. An excerpt:
a) High Throughput PI3K Lipid Kinase Assay (Binding Assay): The efficacy of compounds of the invention in inhibiting the PI3K induced-lipid phosphorylation may be tested in the following binding assay. The assay combines the scintillation proximity assay technology (SPA, Amersham) with the capacity of neomycin (a polycationic antibiotic) to bind phospholipids with high affinity and specificity. The Scintillation Proximity Assay is based on the properties of weakly emitting isotopes (such as ^3H, ^125I, ^33P). Coating SPA beads with neomycin allows the detection of phosphorylated lipid substrates after incubation with recombinant PI3K and radioactive ATP in the same well, by capturing the radioactive phospholipids to the SPA beads through their specific binding to neomycin. […] After incubation at room temperature for 180 minutes, with gentle agitation, the reaction is stopped by addition of 60 μl of a solution containing 100 μg of neomycin-coated PVT SPA beads in PBS containing ATP 10 mM and EDTA 5 mM. The assay is further incubated at room temperature for 60 minutes with gentle agitation to allow binding of phospholipids to neomycin-SPA beads. After precipitation of the neomycin-coated PVT SPA beads for 5 minutes at 1500×g, radioactive PtdIns(3)P is quantified by scintillation counting in a Wallac MicroBetaTM plate counter. […]
(SPA uses beads or plates that emit light when radiolabelled molecules are held near them.)

The term IC50 denotes the concentration that inhibits the measured activity by half. On to `CC(=O)Nc1nc(C)c(-c2csc(Nc3cccc(C(=O)O)c3)n2)s1` [Example 1], for which the concentration for half-maximal inhibition (IC50) was found to be 10 nM.
